# Paper PMC6172220, “Calcineurin B homologous protein 3 binds with high affinity to the CHP binding domain of the human sodium/proton exchanger NHE1” (Scientific Reports, 2006)
# Tests used:
# [1] = biological target: NHE1 657-700 (Homo sapiens) (UniProt P19634); settings: cited from earlier work
# [2] = biological target: NHE1 637-656 (Homo sapiens) (UniProt P19634); settings: cited from earlier work
# [3] = biological target: CTD: C-terminal region of the regulatory domain of human NHE1 (residues 633-815), hexa-histidine tagged (human) (UniProt P19634); experiment: SEC; analytical SEC, Superdex 200 increase 10/300 GL; 20 mM HEPES, 150 mM NaCl, 1 mM TCEP, pH 7.2 with 10 mM CaCl2; CaM:CTD 2:1 (40 uM CaM + 20 uM CTD), CHP3:CTD equimolar; peak fractions checked by SDS-PAGE
stoichiometry N [3],Substance,Kd [1] [nM],Kd [2] [nM]
,calmodulin (from UniProt P0DP23),350,20
1,"human calmodulin (CaM), His-tagged (from UniProt P0DP23 2-149) (natural protein)",,
